This is an account of results in patent US20200231670A1 (AGENSYS, published 2020).

Protein sequences, listed by entry. Tags and fused reporters are not part of them. Residues count along the entry.
UniProt Q9NQS3, 58-549 limits assumed, stated change not applied: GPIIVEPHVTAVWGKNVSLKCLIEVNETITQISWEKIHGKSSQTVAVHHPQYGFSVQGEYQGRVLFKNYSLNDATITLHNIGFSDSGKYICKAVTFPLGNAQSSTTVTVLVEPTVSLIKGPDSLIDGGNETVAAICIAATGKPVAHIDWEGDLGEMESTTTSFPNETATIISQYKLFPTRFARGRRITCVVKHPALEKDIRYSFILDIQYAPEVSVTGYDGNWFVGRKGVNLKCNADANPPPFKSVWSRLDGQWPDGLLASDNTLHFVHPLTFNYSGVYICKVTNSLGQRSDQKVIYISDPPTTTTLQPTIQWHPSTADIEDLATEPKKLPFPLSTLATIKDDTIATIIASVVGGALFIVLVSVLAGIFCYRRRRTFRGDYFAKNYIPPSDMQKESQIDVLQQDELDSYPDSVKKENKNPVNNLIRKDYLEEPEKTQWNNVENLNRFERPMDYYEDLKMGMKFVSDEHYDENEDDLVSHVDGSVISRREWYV

The assay deals with T1, Nectin-3 over-expressed by engineered Rat1(E) cells (UniProt Q9NQS3 58-549, limits assumed).
T1 construct: whole, on cells; also called Rat1(E)-Nectin-3; Rat1(E) Nectin3
Briefly: IHC, FFPE Rat1(E) cells expressing Nectin-3. As for the experimental part:
IHC staining was performed according to the following exemplary protocols. Briefly, an indirect IHC technique was used to detect Nectin-4 in the IHC assay. The samples were fixed in 10% buffered neutral formalin, processed and embedded into paraffin wax, and prepared as 4 μm tissue sections. After deparaffinization and re-hydration, sections were treated for antigen retrieval. The antigen epitopes in Nectin-4 were retrieved, for example, by application of heat to the tissue sections in an aqueous medium, commonly referred to as a Heat-Induced Epitope Retrieval (HIER) procedure. […] The tissue sections bound with primary antibodies were washed and detected with an enzyme-labeled, e.g. peroxidase-labeled, secondary antibody. […] The stained tissue sections were then scanned, imaged, and evaluated with light microscopy, for example, using an Aperio ScanScope CS (Aperio, Vista, Calif.).
To assess the level of Nectin-4 expression in the tissue sections by the level of antibody staining, stained tissue sections were assessed, evaluated, categorized, and recorded into different categories or scores according to the intensity of the IHC staining and cancer cell positivity ratio. […] Lack of specific staining was recorded as negative (“0” or interchangeably with as “−”). […]

B1: M22-321b41.1 anti-Nectin-4 mouse monoclonal antibody (antibody, mouse IgG2a, kappa, V domains shown)
VH: QVQLQQSGAELARPGASVKLSCKASGYTFTTYWMQWVKQRPGQGLEWIGSIYPGDGDTRYTQKFKGKATLTADKSSSTAYIQLSTLASEDSAVYYCAREYYGLDYWGQGTTLTVSS
VL: DIVMTQAAFSNPVTLGTSASISCRSSKSLLHSNGITYLYWYLQKPGQSPQLLIYHMSNLASGVPDRFTSSGSGTDFTLRISRVEAEDVGVYYCAQNLELPFTFGGGTKLETKR
notes: Mouse IgG2a kappa from hybridoma M22-321b41.1 (ATCC PTA-124245), protein A purified; also called mAb M22-321b41.1; M22-321b1.1
On to B1, for which the binding result is on record as “no binding (tested: 2.5 µg/mL)”.
